This note sets out measurements from patent US10617670B2, “Synergistic auristatin combinations” (priority 2014, dated 2020).

Bounds are passed on as bounds.

Data set [1] deals with panel of 81 protein kinases and Class III PI3K family hVps34. Description: Kinase screening services (Dundee University and Invitrogen). The format is biochemical. The settings on record: versus evaluated kinases.
The conditions of data set [2]: rat.

As for `COc1ccc(-c2cc3c(C)nc(N)nc3n([C@H]3CC[C@H](OCCO)CC3)c2=O)cn1` [Compound 1A, 2-amino-8-[trans-4-(2-hydroxyethoxy)cyclohexyl]-6-(6-methoxypyridin-3-yl)-4-methylpyrido[2,3-d]pyrimidin-7(8H)-one], the “selectivity for the PI3K family” value in data set [1] was greater than 500. Besides, in data set [2], the “oral bioavailability F(%)” value is reported as 56+/−16%.
